The results in this text go back to patent US6207683A, “Benzocycloheptathiophene compounds” (Bridge Pharma, Inc., priority 1999, dated 2001).

Sequences of proteins named here, by UniProt entry; tags and fusion partners are left off.
UniProt P30546, whole entry: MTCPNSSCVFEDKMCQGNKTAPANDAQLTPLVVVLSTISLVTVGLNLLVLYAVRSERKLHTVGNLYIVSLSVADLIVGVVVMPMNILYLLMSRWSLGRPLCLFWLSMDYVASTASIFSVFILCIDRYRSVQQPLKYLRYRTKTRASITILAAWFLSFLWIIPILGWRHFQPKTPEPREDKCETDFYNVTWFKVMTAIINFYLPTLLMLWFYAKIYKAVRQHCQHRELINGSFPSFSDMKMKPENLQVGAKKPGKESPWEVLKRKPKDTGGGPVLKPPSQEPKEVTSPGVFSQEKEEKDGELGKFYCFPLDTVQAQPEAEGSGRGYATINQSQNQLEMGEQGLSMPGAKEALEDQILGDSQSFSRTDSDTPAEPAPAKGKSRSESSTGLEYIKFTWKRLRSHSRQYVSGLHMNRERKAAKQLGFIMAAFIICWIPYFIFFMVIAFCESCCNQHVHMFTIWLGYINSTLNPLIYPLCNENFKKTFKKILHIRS

For the experiment, the target named is T1, histamine H1 -receptors (membranes from bovine cerebellum) (Bos taurus, UniProt P30546).
T1 construct: membranes from bovine cerebellum; from tissue; host or cells: bovine cerebellum membranes
In words: [^3 H]pyrilamine binding assay, histamine H1-receptors. The procedure:
1. Binding to histaminergic receptors
The affinities of the test compounds for histamine H1 -receptors were assessed using the [^3 H]pyrilamine binding assay, modified after Chang et al. Heterogeneity of Histamine H1 -Receptors. J. Neurochem. 1979, 32: 1653-1663 Briefly, membranes from bovine cerebellum were incubated with [^3 H]pyrilamine and the test compound at increasing concentrations. The specific binding of the radioactive ligand to the receptor was defined as the difference between total binding and nonspecific binding, determined in the presence of an excess of unlabelled ligand. IC50 values (concentration required to inhibit 50% of specific binding of [^3 H]pyrilamine) were determined by non linear regression analysis of the competition curves.

Take `CN1CCC(=C2c3ccccc3CC(=O)c3sccc32)CC1` [Ketotifen, ketotifen]: the IC50 (commonly the midpoint of a concentration-inhibition curve) was determined as 8.15 nM.
